Publication PMC8271538, “Chemical Modulation of the 1-(Piperidin-4-yl)-1,3-dihydro-2H-benzo[d]imidazole-2-one Scaffold as a Novel NLRP3 Inhibitor” (Molecules, 2021)
This is a selection: effects in other tests are not listed, and their absence says nothing.

Columns and labels:
NLRP3 = conditions: FLECS; cited from earlier work
THP-1 cells = assay: Cytotoxicity, MTT assay, 72 h; conditions: 72 h treatment, 0.1–100 µM, TC50 ± SEM of three experiments
[1] = system: NLRP3-dependent pyroptosis in differentiated THP-1 cells; assay: NLRP3-dependent pyroptosis (LDH release) in PMA-differentiated, LPS-primed, ATP-triggered THP-1 cells; type: cell-based, human; conditions: 10 µM test compound, 1 h before ATP (5 mM, 90 min); vs vehicle-treated cells; mean ± SEM; NA = not active at 10 µM

Cc1cc(C(=O)CN2CCC(n3c(=O)[nH]c4ccccc43)CC2)c(C)n1C
Binding to NLRP3 (NLRP3): able to bind to NLRP3

O=c1[nH]c2ccccc2n1C1CCN(Cc2ccccc2Cl)CC1
Cytotoxicity TC50 (THP-1 cells): 72.6 ± 3.3 µM
Pyroptosis Decrease, % inhibition at 10 µM [1]: inactive
